Data on 1 compound can be found in patent publication US6858640B2, “Tricyclic indole compounds having affinity for serotonin receptor” (Shionogi & Co., Ltd., priority 2000, dated 2005).

The chains behind the UniProt entries cited, without tags or fusion partners.
UniProt P50406, whole entry: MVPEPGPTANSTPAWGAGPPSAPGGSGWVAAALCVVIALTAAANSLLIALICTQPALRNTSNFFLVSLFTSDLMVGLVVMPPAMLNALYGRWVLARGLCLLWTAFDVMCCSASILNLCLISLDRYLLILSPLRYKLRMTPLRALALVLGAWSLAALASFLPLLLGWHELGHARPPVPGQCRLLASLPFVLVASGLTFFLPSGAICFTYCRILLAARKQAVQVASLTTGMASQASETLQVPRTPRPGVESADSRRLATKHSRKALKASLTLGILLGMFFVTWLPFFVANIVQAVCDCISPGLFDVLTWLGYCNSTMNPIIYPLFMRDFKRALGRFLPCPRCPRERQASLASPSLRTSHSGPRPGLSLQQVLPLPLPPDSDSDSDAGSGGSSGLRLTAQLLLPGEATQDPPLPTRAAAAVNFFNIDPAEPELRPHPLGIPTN

The target in this assay is 5HT6 (Homo sapiens, UniProt P50406). The assay is described as follows: radioligand binding to serotonin receptor, cell membrane sample, Ki by Cheng-Prusoff. The conditions noted are these: read-out: Ki value (nM) ±SE 5-HT6; rat 5-HT6 (HEK293), 8 nM [3H] 5HT 25° C. 120 min or 4 nM [3H] LSD 37° C. 60 min; tested form: oxalate. Here is the method:
A mixture of radioactive ligands and some cardinal numbers of test compounds was incubated with a sample of cell membrane, which was prepared from brain of rats or HEK293 cells, which expressed the receptor, under the following conditions. Then, the sample was filtered by suction on a Whatman GF/C. Radioactivity on the filter was encountered by the use of a liquid scintillation counter. 50% Inhibitory concentration values (IC50 values) of each selective binding were calculated for test compounds and the Ki value was obtained by applying an equation of Cheng-Prusoff [Biochem. Pharmacol. 22 (1973) 3099-3108] Ki=IC50/(1+[L]/Kd).

As a reminder, the Ki is a dissociation constant, usually derived from enzyme kinetics or from competition with a known ligand. In the case of `CNC1COc2c(C)ccc3[nH]c(C)c(c23)C1` (stereo not shown), the Ki was 2.7 nM.
